Experimental findings from article PMC2878397 (Journal of natural products, 2010) are described below.

For this experiment, the target named is T1, NF-κB p50 (Homo sapiens, UniProt P19838).
T1 sequence (P19838 1-433 limits assumed): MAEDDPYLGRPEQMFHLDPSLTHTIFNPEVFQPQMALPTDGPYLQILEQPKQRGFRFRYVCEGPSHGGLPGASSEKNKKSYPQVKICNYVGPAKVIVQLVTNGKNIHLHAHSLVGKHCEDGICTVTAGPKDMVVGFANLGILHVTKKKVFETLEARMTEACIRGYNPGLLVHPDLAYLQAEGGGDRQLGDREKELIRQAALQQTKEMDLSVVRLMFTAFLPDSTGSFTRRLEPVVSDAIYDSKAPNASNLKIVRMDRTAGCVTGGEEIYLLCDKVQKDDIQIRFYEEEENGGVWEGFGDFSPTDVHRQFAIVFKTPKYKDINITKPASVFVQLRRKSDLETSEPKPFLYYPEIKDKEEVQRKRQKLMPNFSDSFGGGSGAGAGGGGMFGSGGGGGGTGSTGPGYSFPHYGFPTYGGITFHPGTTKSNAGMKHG
Description: Enzyme-based ELISA NF-κB p50 assay. In kind it is biochemical. (In an ELISA, binding on a coated surface is turned into a signal by an enzyme label.)

A word on the IC50: it is the point on the concentration scale where inhibition reaches its midpoint. Read a high IC50 as weaker potency in that assay. As to `COc1ccc([C@@]23Oc4cc(OC)cc(OC)c4[C@]2(O)[C@H](O)[C@H](C(=O)N(C)C)[C@H]3c2ccccc2)cc1` [rocaglamide, reference compound], the IC50 was 4 µM.
